# Binding of CDR-mutated scFvs to a peptide of the spike HR2 region

Data: MIT Lincoln Laboratory AlphaSeq set, Engelhart et al. 2022, doi:10.1038/s41597-022-01779-4, as distributed in FLAb.

All variants were tested on one target, the spike HR2 peptide PDVDLGDISGINAS (SARS-CoV-2).

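The starting antibody came from a phage panning campaign against this peptide. In library AAYL49, one, two or three CDR residues were substituted; doubles and triples were drawn at random. The assay is AlphaSeq: two haploid yeast populations carry antibody and antigen on their surface. After mating in shaken culture at 30 °C for 16 h, diploids were selected and their barcode pairs sequenced. Read counts were normalised to the haploid input and turned into Kd by a linear fit to BCL2-family pairs of known affinity, for each replicate. There are three technical replicates.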

Each scFv is VH, three GGGGS repeats, VL, as in the parent Ab-14, and differs from it in the CDRs of the heavy chain only.
VH: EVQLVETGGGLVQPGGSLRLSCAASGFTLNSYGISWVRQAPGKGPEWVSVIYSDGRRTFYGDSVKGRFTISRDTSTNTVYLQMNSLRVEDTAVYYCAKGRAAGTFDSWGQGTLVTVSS
VL: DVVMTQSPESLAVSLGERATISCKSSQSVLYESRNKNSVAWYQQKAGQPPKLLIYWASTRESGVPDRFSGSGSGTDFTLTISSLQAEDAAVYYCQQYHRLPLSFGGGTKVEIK

Each variant is given by its three heavy chain CDRs, as the data file delimits them; those of the parent are GFTLNSYGIS, VIYSDGRRTFYGDSVK, GRAAGTFDS. The read-out is the apparent dissociation constant on a log10 scale (nM): the lower, the stronger. "ND" marks a missing value. The strain was present, yet no cells mated with the target were sequenced in that replicate, which points to weak or no binding. Parent in this assay: reference entry 0.65, copy in this library 4.11 (one replicate of three). As a blank, each scFv also met three strains without target: over library AAYL49, 15% of these pairings were detected, typically at 4.06 and seldom below 2.83. For each scFv, signals with the empty controls are counted beside the result, with their mean in brackets.

CDR-H1	CDR-H2	CDR-H3	log10 Kd (nM) by replicate	empty controls
GFTANSYGIS	VIYSDGRRTFYGDSVK	GRADGTFDS	ND / ND / ND	4/9 (4.61)
GFTPNSYGGS	VIPSDGRRTFYGDSVK	GRAAGTFDS	ND / ND / 4.61	2/9 (3.94)
GFTLNSYGIS	VIYSDGRRTKYGDSVK	GRAAETADS	3.23 / ND / 4.47	2/9 (3.46)
GFTENSYGIS	VIYSDGRRTFYGDSVK	GRFAYTFDS	ND / ND / ND	0/9
GPTLNSYGIS	VIYSDGRSTFYGDSVK	GRAALTFDS	ND / ND / ND	1/9 (4.46)
GFTLNSYGIS	VIHSAGRRTFYGDSVK	GRAAGTFDE	ND / ND / ND	1/9 (3.19)
GFKLNSYGIS	VIYSDGRRTLYGFSVK	GRAAGTFDS	4.71 / ND / ND	1/9 (3.00)
NFTLRSYGIS	VFYSDGRRTFYGDSVK	GRAAGTFDS	ND / ND / ND	0/9
GFTLNSYGIS	VIYSDGRDTFYGDSVK	GRAAITFDS	ND / ND / 3.52	2/9 (3.61)
GFTLNSYGIS	VIYSDGRRTFYGDSYK	GRAVGDFDS	2.66 / ND / ND	1/9 (2.41)
GFTLNSYGIS	KIYSDGRRTFYGDSVK	GRAAQTFDF	ND / ND / ND	0/9
GFTLNSYGIS	VIYSDGRRGQYGDSVK	GRAAGTYDS	ND / ND / ND	1/9 (5.50)
GFTLNSYGIS	DIYSDGRRTFYGDSVK	GRSKGTFDS	ND / 3.80 / ND	3/9 (3.73)
GFTLNSYGIS	VIYSDGVTTFYGDSVK	GRAAGTFDS	2.13 / 1.87 / 2.46	4/9 (4.23)
GFTLNSYGIS	VSYSDGRRTLYGDSHK	GRAAGTFDS	ND / 4.30 / ND	1/9 (3.98)
HFTLNSYGIS	VIYSDGRRTFYGDSVF	GRAFGTFDS	ND / ND / ND	3/9 (3.52)
GFTLNSYGIS	VIYSDGYRTFDGDSVK	GTAAGTFDS	ND / ND / ND	0/9
GFTLNSYGIS	CFYSDGRRTFYGDSVK	GRAAGTFNS	5.38 / 4.21 / 4.54	6/9 (4.77)
GFTLNSYGIS	VIYFDGRRTFYGDVVK	GRAAGTFDC	5.76 / ND / 4.34	3/9 (3.74)
GFTLNSYGIS	VIYSDGRRDFYGDSIY	GRAAGTFDS	ND / ND / ND	1/9 (4.43)
GCTLNSYGIS	SIYSDGRRTFYSDSVK	GRAAGTFDS	ND / ND / ND	0/9
GFTDNSYGIS	VIYSDGRRTFYGDSVK	GRAAHTFDS	ND / ND / ND	2/9 (3.13)
GFTLNSYGIS	VIYSDGRRTFYGMSVK	GRAAWWFDS	ND / ND / ND	1/9 (3.17)
GFTLNSYWIG	VIYSDGRRTFYGDSVK	GRAKGTFDS	ND / 2.47 / ND	1/9 (4.03)
GFTLNSYGIS	VIYSDGRRKFYGDSVH	GREAGTFDS	1.60 / 1.76 / 1.81	4/9 (4.31)
GFTLYSYGIS	VIYSDGGRTFYGDSVK	GRAAHTFDS	3.80 / 2.92 / 3.94	1/9 (4.12)
GFTLNSYGIS	VIFSDGTRTFYGDSVK	GRLAGTFDS	1.45 / 1.44 / 1.69	4/9 (4.64)
GFTLNSYQIS	KPYSDGRRTFYGDSVK	GRAAGTFDS	ND / ND / ND	1/9 (4.20)
GFTLNSYGIS	VLYSDGRRMFYGDSVK	GRATGTFDS	ND / ND / ND	2/9 (4.60)
GFTLNSYGIS	VIYSDWKRTFYGDSVK	GRAHGTFDS	ND / ND / ND	2/9 (4.02)
GFTLNSYGIS	VIWSDTRRTFNGDSVK	GRAAGTFDS	ND / ND / 5.20	3/9 (3.75)
GFTLMSAGIS	VIYSDGRRTFYGDSVK	GRAAGTYDS	4.03 / ND / ND	0/9
GFTLNSYGIS	VIYSDGRRTFYGDPVK	GTADGTFDS	ND / 4.21 / ND	2/9 (2.98)
GFTLNSYGIS	VIYSDGPRTFYGDSVK	GRAAGARDS	ND / 3.64 / ND	1/9 (3.10)
GFTMNSYEIS	VIYSDGMRTFYGDSVK	GRAAGTFDS	ND / ND / ND	0/9
GFTLNSYGIS	VIYSDGRRTFYGDSVD	GRLAGTFDS	1.20 / 1.19 / 1.29	0/9
GFTLNSYGIS	VIYSFGRRTFYGDSDK	GRAAYTFDS	ND / ND / ND	0/9
GFTLNSYGIS	VPYSDGRRTFYGGSVK	GRAAGTFDV	ND / ND / ND	0/9
GFVSNSYGIS	VCYSDGRRTFYGDSVK	GRAAGTFDS	ND / ND / ND	2/9 (3.29)
GRTLNSYGIS	VIYSDGRRTFYGDSVI	GRAAGTFDS	5.47 / ND / ND	2/9 (4.21)
GFTLNSYGCS	VIYSDGDRTFYGDSVK	GRAAGTFDS	4.65 / 2.41 / 3.42	1/9 (4.39)

The first 4 entries again:

CDR-H1	CDR-H2	CDR-H3	log10 Kd (nM) by replicate	empty controls
GFTANSYGIS	VIYSDGRRTFYGDSVK	GRADGTFDS	ND / ND / ND	4/9 (4.61)
GFTPNSYGGS	VIPSDGRRTFYGDSVK	GRAAGTFDS	ND / ND / 4.61	2/9 (3.94)
GFTLNSYGIS	VIYSDGRRTKYGDSVK	GRAAETADS	3.23 / ND / 4.47	2/9 (3.46)
GFTENSYGIS	VIYSDGRRTFYGDSVK	GRFAYTFDS	ND / ND / ND	0/9